# Values quoted from earlier work as cited in article PMC4594927 (PLoS ONE, 2015).
# Protein sequences, listed by entry. Tags and fused reporters are not part of them. Lines headed by an entry give the natural chain unless they say otherwise; changes in a name come on top.
# UniProt Q8T6T2: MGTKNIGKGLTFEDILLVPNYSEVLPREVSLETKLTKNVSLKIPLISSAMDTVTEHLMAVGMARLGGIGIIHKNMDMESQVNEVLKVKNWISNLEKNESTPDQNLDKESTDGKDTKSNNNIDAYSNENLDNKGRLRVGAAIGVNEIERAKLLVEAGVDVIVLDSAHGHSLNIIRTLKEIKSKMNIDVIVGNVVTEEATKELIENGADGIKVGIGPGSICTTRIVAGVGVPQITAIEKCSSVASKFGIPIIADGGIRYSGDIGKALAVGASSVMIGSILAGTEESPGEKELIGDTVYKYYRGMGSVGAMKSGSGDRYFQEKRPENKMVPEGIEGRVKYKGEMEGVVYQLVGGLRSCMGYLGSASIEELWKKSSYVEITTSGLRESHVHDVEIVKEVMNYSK
# Target: CpIMPDH (Cryptosporidium parvum, UniProt Q8T6T2)
# Conditions: cited from earlier work
smiles,measurement,value
C=C(C)c1cccc(C(C)(C)NC(=O)Nc2ccc(OC)cc2)c1 [P102],Ki,9 ± 1 nM
